Entries after “also recorded” stand apart in the source; their conditions may differ. Like-named read-outs stand apart in the source and are kept apart here.
Columns and labels:
NTR-2 = NTR-2 (Homo sapiens, UniProt O95665); assay: Competitive NTR-2 binding versus radiolabeled NT[8-13]; conditions: -NH2 of ABS1 changed to -N3
[1] = Catalepsy, horizontal bar test; conditions: IP 5 mg/kg
[2] = Brain distribution of ABS201 in rats
Description: (§1) At selected time points, blood was removed or brain harvested and the concentration of the peptide analog determined using LC/MS/MS.
(§2) These samples were then used for the determination of plasma and brain drug levels by LC/MS/MS for estimating BBB penetration and pharmacokinetic parameters.

By UniProt entry, the sequences of proteins in these tests, tags left out.
UniProt O95665, whole entry, species assumed: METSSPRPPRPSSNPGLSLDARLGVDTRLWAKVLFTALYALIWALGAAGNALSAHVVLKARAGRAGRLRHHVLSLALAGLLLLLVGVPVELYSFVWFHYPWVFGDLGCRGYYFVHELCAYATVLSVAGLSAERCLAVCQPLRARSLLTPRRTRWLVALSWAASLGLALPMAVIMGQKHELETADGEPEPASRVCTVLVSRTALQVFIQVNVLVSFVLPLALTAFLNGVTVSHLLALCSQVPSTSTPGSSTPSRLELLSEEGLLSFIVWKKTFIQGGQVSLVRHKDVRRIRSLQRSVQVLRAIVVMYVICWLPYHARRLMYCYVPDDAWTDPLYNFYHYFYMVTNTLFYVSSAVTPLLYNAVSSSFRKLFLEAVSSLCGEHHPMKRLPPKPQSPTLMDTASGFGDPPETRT
UniProt P20789, whole entry: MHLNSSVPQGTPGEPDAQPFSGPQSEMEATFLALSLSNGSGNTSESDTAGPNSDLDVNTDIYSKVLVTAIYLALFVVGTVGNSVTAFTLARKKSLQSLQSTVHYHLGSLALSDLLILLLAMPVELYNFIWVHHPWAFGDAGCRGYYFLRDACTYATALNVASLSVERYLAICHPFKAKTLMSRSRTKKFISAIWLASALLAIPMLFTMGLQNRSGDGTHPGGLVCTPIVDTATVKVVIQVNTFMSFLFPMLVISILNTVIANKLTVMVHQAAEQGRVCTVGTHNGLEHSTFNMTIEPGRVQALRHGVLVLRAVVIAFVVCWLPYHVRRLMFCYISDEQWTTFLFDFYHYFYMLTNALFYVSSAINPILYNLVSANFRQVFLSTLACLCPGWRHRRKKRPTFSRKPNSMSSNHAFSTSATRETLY

[3] = 100 μg/mL
NTR-1 = NTR-1 (Rattus norvegicus, UniProt P20789); assay: Hypothermia induction in rats (rectal temperature); format: in vivo
[4] = Blood and plasma pharmacokinetics of ABS201 in rats
Description: as §1, §2

Compound	improvement of NTR-2 to NTR-1 selectivity (NTR-2) [fold]	catalepsy after peripheral administration [1]	levels in brain following IV and PO administration ([2]; IV 1 mg/kg, PO 30 mg/kg)	levels in brain after IV administration ([2]; IV 5 mg/kg)	levels in brain after oral administration ([2]; oral 50 mg/kg, 15 minutes post)	partition between cellular and serum fractions of whole rat blood [3]	ED50 (NTR-1; ip, read-out: ED50 for hypothermic induction, IP, range 0.1-10 mg/kg) [mg/kg]	ED50 (NTR-1; po, read-out: ED50 for hypothermic induction, oral, administered orally) [mg/kg]	metabolites in whole rat blood (100 μg/mL)	metabolism in whole blood or plasma (5 or 30 min incubation at 37° C.)	plasma levels following oral administration ([4]; oral 30 mg/kg, non fasted rats)	levels in whole blood after oral administration ([4]; oral 50 mg/kg)
CC(C)C[C@H](NC(=O)[C@@H](NC(=O)[C@H](Cc1ccc(O)cc1)NC(=O)[C@@H]1CCCN1C(=O)[C@H](CCCNC(=N)N)NC(=O)[C@H](CCCCCN)N=[N+]=[N-])C(C)(C)C)C(=O)O [ABS13, N3-L-homolysine-Arg-Pro-Tyr-tertLeu-Leu-COOH]	~10											
CC(C)C[C@H](NC(=O)[C@@H](NC(=O)[C@H](Cc1ccc(O)cc1)NC(=O)[C@@H]1CCCN1C(=O)[C@H](CCCNC(=N)N)NC(=O)[C@@H](C)CCCCCN)C(C)(C)C)C(=O)O [ABS201, hLys-Arg-Pro-Tyr-t-Leu-Leu]		does not induce catalepsy; also recorded: Neither ABS201 (5 mg/kg) nor saline caused catalepsy; also recorded: does not induce a cataleptic state	below the LLOD at all times	below the LLOD at all times	measurable quantities of ABS201 were detected in brains of 2 of 3 animals	distributes almost evenly between the cellular and serum fractions	0.943	~10	No metabolites	no evidence of metabolism	below the LLOD at all times	below the LLOD at all times

— US20080234202A1, “Non-natural amino acids and neurotensin analogues” (priority 2004, published 2008)
